scFv variants of Ab-91 (heavy chain) against a SARS-CoV-2 spike peptide

Reference: Engelhart et al. 2022, doi:10.1038/s41597-022-01779-4. File: FLAb, binding data.

Antigen: PDVDLGDISGINAS, a 14-residue peptide of the SARS-CoV-2 spike HR2 region.

Each scFv is VL, a (GGGGS)3 linker, VH, as in the parent Ab-91, and differs from it in the CDRs of the heavy chain only.
VL: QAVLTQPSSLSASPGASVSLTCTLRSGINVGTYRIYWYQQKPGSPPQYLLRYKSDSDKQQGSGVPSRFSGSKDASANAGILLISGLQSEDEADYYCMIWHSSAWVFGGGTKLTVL
VH: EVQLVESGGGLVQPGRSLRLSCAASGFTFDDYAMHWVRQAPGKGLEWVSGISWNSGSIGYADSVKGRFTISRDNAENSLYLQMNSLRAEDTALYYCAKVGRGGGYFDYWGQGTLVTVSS

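The starting antibody came from a phage panning campaign against this peptide. In library AAYL51, one, two or three CDR residues were substituted; doubles and triples were drawn at random. The assay is AlphaSeq: two haploid yeast populations carry antibody and antigen on their surface. After mating in shaken culture at 30 °C for 16 h, diploids were selected and their barcode pairs sequenced. A regression on co-assayed BCL2-family reference pairs converts the normalised counts of each replicate to an apparent Kd. There are three technical replicates.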

Positions count from residue 1 of the parent VH; G26S puts S in place of G. The read-out is the apparent dissociation constant on a log10 scale (nM): the lower, the stronger. A mean of the replicates is given; it leaves out those without a signal. A pair that was not seen in any replicate is written "no signal"; this usually means weak binding, but a binder can also be missed.

{"changes": "G26S T28N A61R", "mean, log10 nM": "no signal", "seen in": "0 of 3"}
{"changes": "T28Y H35S S63F", "mean, log10 nM": "no signal", "seen in": "0 of 3"}
{"changes": "G50I D62T G100K", "mean, log10 nM": "no signal", "seen in": "0 of 3"}
{"changes": "S52R G104S Y105E", "mean, log10 nM": "2.62", "seen in": "1 of 3"}
{"changes": "Y32I G50D G59K", "mean, log10 nM": "5.13", "seen in": "2 of 3"}
{"changes": "G59H V64S R101L", "mean, log10 nM": "no signal", "seen in": "0 of 3"}
{"changes": "D31W V64Y V99R", "mean, log10 nM": "no signal", "seen in": "0 of 3"}
{"changes": "V64W G100I", "mean, log10 nM": "4.08", "seen in": "3 of 3"}
{"changes": "M34G S55R D62I", "mean, log10 nM": "5.39", "seen in": "2 of 3"}
{"changes": "F29Y A33L A61V", "mean, log10 nM": "5.14", "seen in": "2 of 3"}
{"changes": "V64S Y105N", "mean, log10 nM": "no signal", "seen in": "0 of 3"}
{"changes": "F29M G59F Y108F", "mean, log10 nM": "4.92", "seen in": "2 of 3"}
{"changes": "S52L S55L D62K", "mean, log10 nM": "5.23", "seen in": "2 of 3"}
{"changes": "S63G G103E Y105M", "mean, log10 nM": "no signal", "seen in": "0 of 3"}
{"changes": "W53C Y105P", "mean, log10 nM": "3.82", "seen in": "2 of 3"}
{"changes": "F29A G100P G104T", "mean, log10 nM": "4.25", "seen in": "1 of 3"}
{"changes": "T28Q G56D A61W", "mean, log10 nM": "1.99", "seen in": "1 of 3"}
{"changes": "I51P V64I G103C", "mean, log10 nM": "5.18", "seen in": "2 of 3"}
{"changes": "H35N G50K F106C", "mean, log10 nM": "no signal", "seen in": "0 of 3"}
{"changes": "T28C H35G W53S", "mean, log10 nM": "4.47", "seen in": "1 of 3"}
{"changes": "F27R Y32H A33M", "mean, log10 nM": "3.96", "seen in": "2 of 3"}
{"changes": "N54D G102Q Y105Q", "mean, log10 nM": "5.66", "seen in": "2 of 3"}
{"changes": "N54W I58L D107R", "mean, log10 nM": "no signal", "seen in": "0 of 3"}
{"changes": "G26M M34C D62S", "mean, log10 nM": "no signal", "seen in": "0 of 3"}
{"changes": "N54H Y60K G104A", "mean, log10 nM": "2.32", "seen in": "1 of 3"}
{"changes": "G26K K65D V99K", "mean, log10 nM": "4.67", "seen in": "2 of 3"}
{"changes": "K65V G102F D107L", "mean, log10 nM": "3.46", "seen in": "3 of 3"}
{"changes": "M34R I58R G104D", "mean, log10 nM": "no signal", "seen in": "0 of 3"}
{"changes": "G26F H35E N54G", "mean, log10 nM": "no signal", "seen in": "0 of 3"}
{"changes": "H35G I51N D107Y", "mean, log10 nM": "3.83", "seen in": "2 of 3"}

The opening 5 entries, copied out:

| changes | mean, log10 nM | seen in |
|---|---|---|
| G26S T28N A61R | no signal | 0 of 3 |
| T28Y H35S S63F | no signal | 0 of 3 |
| G50I D62T G100K | no signal | 0 of 3 |
| S52R G104S Y105E | 2.62 | 1 of 3 |
| Y32I G50D G59K | 5.13 | 2 of 3 |

Three control strains display no target. For library AAYL51, 21% of the pairings with them gave a signal, with a median of 4.54 and one signal in twenty below 3.26, so weak values seen in few replicates may be background. Parent in this assay: reference entry 1.86, copy in this library 0.88.